## scFv variants of Ab-14 (heavy chain) against a SARS-CoV-2 spike peptide

Data: MIT Lincoln Laboratory AlphaSeq set, Engelhart et al. 2022, doi:10.1038/s41597-022-01779-4, as distributed in FLAb.

Antigen: PDVDLGDISGINAS, a 14-residue peptide of the SARS-CoV-2 spike HR2 region.

The variants keep the light chain, the linker and the frameworks of Ab-14 (scFv order VH, the linker GGGGSGGGGSGGGGS, VL).
VH: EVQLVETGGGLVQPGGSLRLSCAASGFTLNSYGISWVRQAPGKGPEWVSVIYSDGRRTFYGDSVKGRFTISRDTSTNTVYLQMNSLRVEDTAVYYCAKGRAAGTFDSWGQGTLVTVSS
VL: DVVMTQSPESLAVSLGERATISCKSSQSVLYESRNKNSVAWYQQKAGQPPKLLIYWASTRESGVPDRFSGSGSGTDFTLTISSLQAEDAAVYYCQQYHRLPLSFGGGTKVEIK

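The parent was found by panning a naive human phage display library on the peptide. The library (AAYL49) carries one to three amino acid substitutions per variant, with no insertions or deletions. In AlphaSeq, yeast of one mating type display the scFv and yeast of the other type display the target. After mating in shaken culture at 30 °C for 16 h, diploids were selected and their barcode pairs sequenced. A regression on co-assayed BCL2-family reference pairs converts the normalised counts of each replicate to an apparent Kd. There are three technical replicates.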

Positions count from residue 1 of the parent VH; I51A puts A in place of I. Scale: log10 of Kd in nM, estimated from mating counts; low values are strong binders. A mean of the replicates is given; it leaves out those without a signal. An entry "nd" has no value in the source: the pair was not observed among the diploids in any replicate. This suggests poor binding but is not conclusive. Parent in this assay: reference entry 0.65, copy in this library 4.11 (one replicate of three).

changes,mean log10 Kd (nM),replicates with signal,control signals
I51A+D54W+A102T,3.95,2/3,1/9
G26I+N30A+I34F,1.91,3/3,1/9
F59M+V64A+A101T,1.95,3/3,1/9
V50Y+T58D,5.94,1/3,0/9
V50A+S53T+S63H,5.02,3/3,7/9
V64L+T104H+D106V,nd,0/3,0/9
I34R+R56M+T104E,nd,0/3,1/9
I34D+T58Y+Y60A,nd,0/3,3/9
D62C+V64E+D106H,nd,0/3,0/9
S31A+K65A+F105Q,nd,0/3,0/9
S53N+R57A+G103C,4.17,3/3,8/9
S31H+A101T,nd,0/3,1/9
I51N+S107V,4.16,2/3,3/9
G26L+D54T+G61P,nd,0/3,0/9
S63E+G99R+G103N,1.15,3/3,3/9
S35Q+S63Y+A102I,3.62,1/3,0/9
D54R+G55W,nd,0/3,0/9
G55L+S63F,nd,0/3,0/9
S35I+Y52Q+A102N,3.47,1/3,0/9
Y32M+R56S+G103W,0.96,3/3,0/9
S31Q+Y52S+Y60L,3.49,2/3,2/9
T28E+Y52H+D106H,3.91,3/3,1/9
R57N+T58G+K65G,nd,0/3,0/9
G33M+F59L+V64G,5.60,3/3,5/9
T28F+Y60S+F105T,3.12,1/3,1/9
Y32P+S107T,1.55,3/3,3/9
V50S+Y52A+R56E,3.82,1/3,1/9
F27K+T58K+F105C,nd,0/3,1/9
Y52Q+G55A+G103I,2.86,1/3,1/9
Y32V+G33Y+I51T,nd,0/3,1/9
G26I+I34N+A101E,4.15,2/3,0/9
R56V+S63V+G103P,4.51,1/3,1/9
A102C+T104V+S107C,0.87,3/3,2/9
I34N+Y52E,nd,0/3,3/9
Y32K+A101W+F105T,nd,0/3,0/9
F27H+D54V+R56Q,nd,0/3,0/9
L29G+V50D,nd,0/3,1/9
S35T+R56I+F105H,4.73,3/3,6/9
N30I+G33V+F59W,nd,0/3,0/9
L29F+T58I+V64L,nd,0/3,0/9
Y32H+S35N+Y60R,4.39,1/3,0/9
Y32V+G61M+F105W,nd,0/3,0/9
S31G+I34Q,3.67,1/3,1/9
G33I+I51W+G103V,4.12,2/3,2/9
T28D+G55R+S63A,1.95,1/3,0/9
V50T+Y60R+G103T,nd,0/3,2/9
F59Q+D62M+A102F,4.94,2/3,5/9
I51F+S53I+R100H,5.05,2/3,6/9
L29W+G99E+A102C,nd,0/3,2/9
I51E+S53T+D106Q,nd,0/3,1/9

The 8 strongest on average among those seen in every replicate, once more:

changes,mean log10 Kd (nM),replicates with signal,control signals
A102C+T104V+S107C,0.87,3/3,2/9
Y32M+R56S+G103W,0.96,3/3,0/9
S63E+G99R+G103N,1.15,3/3,3/9
Y32P+S107T,1.55,3/3,3/9
G26I+N30A+I34F,1.91,3/3,1/9
F59M+V64A+A101T,1.95,3/3,1/9
T28E+Y52H+D106H,3.91,3/3,1/9
S53N+R57A+G103C,4.17,3/3,8/9

Three control strains display no target. For library AAYL49, 15% of the pairings with them gave a signal, with a median of 4.06 and one signal in twenty below 2.83, so weak values seen in few replicates may be background. For each scFv, signals with the empty controls are counted beside the result.